Source: patent US20080096903A1, “SULFAMOYL-CONTAINING DERIVATIVES AND USES THEREOF” (Wyeth, priority 2006, published 2008)
Some compounds may have been tested in ways that are not shown here.

What was measured:
[1] = test system: Hsp90 (luciferase refolding, cancer cell lysate); experiment: Luciferase Refolding Assay; conditions: read-out: Luciferase IC50; inhibition of luciferase refolding by Hsp90
[2] = test system: Human cancer cell lines; experiment: Cancer-Derived Cell Line Growth Inhibition Assays; conditions: read-out: Cell Growth Inhibition IC50; 3 days, Cell Titer Blue
[3] = biological target: Hsp90α Protein (Homo sapiens, UniProt P07900); experiment: Hsp90 CE Competitive Binding Assay (displacement of fluorescein-labelled geldanamycin); conditions: read-out: CE IC50; Table 14; inhibition of binding of labeled geldanamycin to Hsp90
[4] = test system: HER2/Neu protein in SK-OV-3 cells; experiment: Hsp90 Client Protein Degradation Assay; conditions: read-out: Client Protein IC50, 50% degradation of HER2/Neu protein, overnight

`CC(C)N(CCCOS(N)(=O)=O)CCn1c(Cc2cc3c(cc2I)OCO3)nc2c(N)nc(F)nc21` showed an IC50 [1] of less than 1 µM, an IC50 [2] of less than 100 µM and an IC50 [3] of less than 10 µM. It also gave an IC50 [4] of less than 50 µM.
